Reference: PMC5612759, “PET Imaging of FSHR Expression in Tumors with ^68Ga-Labeled FSH1 Peptide” (Contrast Media & Molecular Imaging, 2017)

Columns and labels:
[1] = In vitro stability in PBS (radio-HPLC); format: physicochemical; details: 37°C; for Radiochemical purity (%) after incubation in PBS: 370 KBq in 200 μL PBS
Protocol: (§1) 10 μL 370 KBq [^68Ga] Ga-NOTA-MAL-FSH1 in saline was incubated in 200 μL PBS or 200 μL human serum for 30, 60, and 120 min at 37°C, respectively. The stability of the labeled peptide in PBS was determined by directly injecting an aliquot of the solution into the HPLC at the preselected time points.

[2] = format: in vitro ADME, human
Protocol: as §1
The serum was first mixed with 200 μL acetonitrile to precipitate the proteins. Subsequently, after centrifugation, supernatant was collected and analyzed by radio-HPLC [18]. Protein-binding fraction was calculated by dividing the radioactivity of the precipitation layer by the total activity used.

[3] = physchem; format: physicochemical; details: pH 7.4
Protocol: To an Eppendorf tube filled with 0.5 mL of the radiolabeled peptide (10 μL, 370 KBq) in phosphate-buffered saline (pH 7.4), 0.5 mL of octanol was added. After stirring for 2 min at room temperature, the two layers were separated by centrifugation. Radioactivity in 100 μL of each layer was measured in a γ-counter (Perkin-Elmer), and log D values were calculated. Experiments were performed in triplicate.

[4] = test system: PC-3 cells; assay: Cell uptake in PC-3 cells; format: cell-based, human; details: 370 KBq, 37°C; for Cell uptake: triplicate
Protocol: PC-3 cells were suspended in 500 μL RPMI 1640 and seeded in 24-well tissues culture plates (1 × 10^5 cells per well) for overnight incubation. After washing with PBS, the cells were incubated with 370 KBq [^68Ga] Ga-NOTA-MAL-FSH1 in the presence or absence of unlabeled FSH1 (to a final concentration of 1 μM) at 37°C for 15, 30, 60, and 120 min, respectively. The cells were washed 3 times with ice-cold PBS and lysed in 0.5 mL of 1.0 M NaOH. The remaining radioactivity was measured in the γ-counter. Cell uptakes were expressed as the percentage of added radioactive dose (% AD). Experiments were performed in triplicate.

[5] = in vivo; parameters: species or system mice; details: male, athymic nude, mouse, iv, 3.7 MBq, total radioactivity
Protocol: (§2) The PC-3 tumor model was generated by subcutaneous injection of 5 × 10^6 cells into the right front flank of male athymic nude mice (4 weeks old, SLAC Laboratory Animal Co., Ltd., China).
(§3) The mice were used for MicroPET studies when the tumor volume reached 100–300 mm^3, which took about 2 weeks. The animal experiments were conducted in compliance with the national regulations and approved by local animal welfare committee.
Mice was injected intravenously with 100 μL 3.7 MBq [^68Ga] Ga-NOTA-MAL-FSH1 in saline under isoflurane anesthesia and subjected to MicroPET imaging. The breathing and body temperature of the mice were monitored by BioVet CT1 system (M2M Imaging Corp.). For the blocking experiment, unlabeled peptide (10 mg/kg body weight) and 3.7 MBq [^68Ga] Ga-NOTA-MAL-FSH1 were coinjected into five mice. Static PET images were acquired for 5 min using an Inveon MicroPET/CT scanner (Siemens Medical Solutions) at 30 min, 1 h, and 2 h postinjection. The quantification analysis of PET images was performed using the same method as previously reported.

[6] = in vivo; parameters: species or system mice; details: male, athymic nude, mouse, 740 KBq, total radioactivity
Protocol: as §2, §3
A number of twenty tumor bearing mice were euthanized with isoflurane (inhalation excess) and dissected at 0.5 h, 1 h, and 2 h (5 mice per time-point) after administrating 740 KBq [^68Ga] Ga-NOTA-MAL-FSH1. To determine the specific uptake, mice were coinjected with the probe with 100 μg of unmodified peptide and sacrificed at 1 h p.i. Normal organs and tumors were collected and weighed. The radioactivity was measured by the γ-counter and the percentage of injected dose per gram of tissue (% ID/g) was determined.

For `CC[C@H](C)[C@H](NC(=O)[C@H](CCCCN)NC(=O)[C@@H]1CCCN1C(=O)[C@H](CCCNC(=N)N)NC(=O)[C@H](C)NC(=O)[C@@H]1CCCN1C(=O)[C@H](CC(=O)O)NC(=O)[C@H](CCCCN)NC(=O)[C@H](Cc1ccc(O)cc1)NC(=O)[C@@H](NC(=O)[C@H](CC(C)C)NC(=O)[C@H](CC(=O)O)NC(=O)[C@H](CCCNC(=N)N)NC(=O)[C@@H](NC(=O)[C@@H](N)Cc1ccc(O)cc1)[C@@H](C)O)C(C)C)C(=O)N[C@@H](CCC(N)=O)C(=O)N[C@@H](CCCCN)C(=O)N[C@H](C(=O)N[C@@H](CSC1CC(=O)N(CCNC(=O)CN2CCN(CC(=O)O)CCN(CC(=O)O)CC2)C1=O)C(=O)N[C@H](C(=O)N[C@@H](Cc1ccccc1)C(=O)O)[C@@H](C)O)[C@@H](C)O` (some centres unmarked) [[^68Ga] Ga-NOTA-MAL-FSH1, metal not drawn], the “Radiochemical purity (%) after incubation in PBS” value ([1]; 0.5 h) was 96.7 ± 1.3%, the “Radiochemical purity (%) after incubation in PBS” value ([1]; 1 h) was 97.3 ± 1.2% and the “Time stable in PBS” value ([1]; PBS) was “at least 2 hours”. For the same compound, the “Radiochemical purity (%) after incubation in human serum” value [2] was 96.6 ± 1.1%, the “Time stable in human serum” value [2] was “at least 2 hours” and the logD at 2 min [3] was -3.12 ± 0.05. For the same compound, the Cell uptake ([4]; 15 min) was 1.10 ± 0.15 % AD, the Cell uptake ([4]; 30 min) was 1.39 ± 0.20 % AD and the Cell uptake ([4]; 60 min) was 1.51 ± 0.19 % AD. The “Cell uptake in the presence of blocking agent” value ([4]; 60 min, with 1 μM unlabeled FSH1, triplicate) was 0.30 ± 0.07 % AD, the Cell uptake ([4]; 120 min) was 1.52 ± 0.21 % AD and the tissue uptake at 0.5 h ([5]; Uptake Kidney) was 18.7 ± 3.44 %ID/g. It also gave a tissue uptake at 1 h ([5]; Uptake Kidney) of 21.1 ± 3.64 %ID/g, a tissue uptake at 2 h ([5]; Uptake Kidney) of 14.1 ± 2.76 %ID/g and a tissue uptake at 0.5 h ([5]; Uptake Liver) of 0.8 ± 0.07 %ID/g. The tissue uptake at 1 h ([5]; Uptake Liver) was 0.44 ± 0.06 %ID/g, the tissue uptake at 2 h ([5]; Uptake Liver) was 0.57 ± 0.12 %ID/g and the tissue uptake at 0.5 h ([5]; Uptake Muscle) was 0.25 ± 0.02 %ID/g. The tissue uptake at 1 h ([5]; Uptake Muscle) was 0.21 ± 0.04 %ID/g, the tissue uptake at 2 h ([5]; Uptake Muscle) was 0.13 ± 0.03 %ID/g and the tissue uptake at 0.5 h ([5]; Uptake Tumor) was 1.87 ± 0.1 %ID/g. For the same compound, the tissue uptake at 1 h ([5]; Uptake Tumor) was 1.26 ± 0.06 %ID/g, the tissue uptake at 2 h ([5]; Uptake Tumor) was 0.71 ± 0.1 %ID/g and the tissue uptake at 0.5 h ([6]; % ID/g in Blood) was 0.95 ± 0.01 %ID/g. It also gave a tissue uptake at 1 h ([6]; % ID/g in Blood) of 0.17 ± 0.02 %ID/g, a tissue uptake at 2 h ([6]; % ID/g in Blood) of 0.13 ± 0.06 %ID/g and a tissue uptake at 0.5 h ([6]; % ID/g in Bone) of 0.34 ± 0.06 %ID/g. For the same compound, the tissue uptake at 1 h ([6]; % ID/g in Bone) was 0.15 ± 0.07 %ID/g, the tissue uptake at 2 h ([6]; % ID/g in Bone) was 0.06 ± 0.02 %ID/g and the tissue uptake at 0.5 h ([6]; % ID/g in Brain) was 0.07 ± 0.01 %ID/g. The tissue uptake at 1 h ([6]; % ID/g in Brain) was 0.03 ± 0.01 %ID/g, the tissue uptake at 2 h ([6]; % ID/g in Brain) was 0.02 ± 0.01 %ID/g and the tissue uptake at 0.5 h ([6]; % ID/g in Fat) was 0.4 ± 0.01 %ID/g. The tissue uptake at 1 h ([6]; % ID/g in Fat) was 0.13 ± 0.06 %ID/g, the tissue uptake at 2 h ([6]; % ID/g in Fat) was 0.04 %ID/g and the tissue uptake at 0.5 h ([6]; % ID/g in Heart) was 0.35 ± 0.18 %ID/g. The tissue uptake at 1 h ([6]; % ID/g in Heart) was 0.14 ± 0.05 %ID/g, the tissue uptake at 2 h ([6]; % ID/g in Heart) was 0.05 ± 0.03 %ID/g and the tissue uptake at 0.5 h ([6]; % ID/g in Intestine) was 0.32 ± 0.06 %ID/g. The tissue uptake at 1 h ([6]; % ID/g in Intestine) was 0.15 ± 0.03 %ID/g, the tissue uptake at 2 h ([6]; % ID/g in Intestine) was 0.05 ± 0.02 %ID/g and the tissue uptake at 0.5 h ([6]; % ID/g in Kidney) was 25 ± 1.77 %ID/g. The tissue uptake at 1 h ([6]; % ID/g in Kidney) was 18.2 ± 2.81 %ID/g, the tissue uptake at 2 h ([6]; % ID/g in Kidney) was 13.9 ± 0.83 %ID/g and the tissue uptake at 0.5 h ([6]; % ID/g in Liver) was 0.93 ± 0.28 %ID/g. It also gave a tissue uptake at 1 h ([6]; % ID/g in Liver) of 0.56 ± 0.04 %ID/g, a tissue uptake at 2 h ([6]; % ID/g in Liver) of 0.37 ± 0.05 %ID/g and a tissue uptake at 0.5 h ([6]; % ID/g in Lung) of 0.67 ± 0.07 %ID/g. For the same compound, the tissue uptake at 1 h ([6]; % ID/g in Lung) was 0.14 ± 0.01 %ID/g, the tissue uptake at 2 h ([6]; % ID/g in Lung) was 0.1 ± 0.01 %ID/g and the tissue uptake at 0.5 h ([6]; % ID/g in Muscle) was 0.26 ± 0.01 %ID/g. For the same compound, the tissue uptake at 1 h ([6]; % ID/g in Muscle) was 0.07 ± 0.01 %ID/g, the tissue uptake at 2 h ([6]; % ID/g in Muscle) was 0.04 ± 0.02 %ID/g and the tissue uptake at 0.5 h ([6]; % ID/g in Pancreas) was 0.94 ± 0.13 %ID/g. The tissue uptake at 1 h ([6]; % ID/g in Pancreas) was 0.11 ± 0.03 %ID/g, the tissue uptake at 2 h ([6]; % ID/g in Pancreas) was 0.04 ± 0.02 %ID/g and the tissue uptake at 0.5 h ([6]; % ID/g in Spleen) was 0.33 ± 0.03 %ID/g. It also gave a tissue uptake at 1 h ([6]; % ID/g in Spleen) of 0.26 ± 0.08 %ID/g, a tissue uptake at 2 h ([6]; % ID/g in Spleen) of 0.11 ± 0.05 %ID/g and a tissue uptake at 0.5 h ([6]; % ID/g in Stomach) of 0.4 ± 0.17 %ID/g. The tissue uptake at 1 h ([6]; % ID/g in Stomach) was 0.16 ± 0.06 %ID/g, the tissue uptake at 2 h ([6]; % ID/g in Stomach) was 0.04 ± 0.01 %ID/g and the tissue uptake at 0.5 h ([6]; % ID/g in Testis) was 0.24 ± 0.02 %ID/g. For the same compound, the tissue uptake at 1 h ([6]; % ID/g in Testis) was 0.08 ± 0.01 %ID/g, the tissue uptake at 2 h ([6]; % ID/g in Testis) was 0.03 ± 0.01 %ID/g and the tissue uptake at 0.5 h ([6]; % ID/g in Tumor) was 1.97 ± 0.17 %ID/g. For the same compound, the tissue uptake at 1 h ([6]; % ID/g in Tumor) was 1.2 ± 0.27 %ID/g, the tissue uptake at 2 h ([6]; % ID/g in Tumor) was 0.97 ± 0.15 %ID/g and the tissue to tissue ratio at 0.5 h ([6]; Ratio of tumor to Blood) was 1.77 ± 0.7. It also gave a tissue to tissue ratio at 1 h ([6]; Ratio of tumor to Blood) of 7.94 ± 1.35, a tissue to tissue ratio at 2 h ([6]; Ratio of tumor to Blood) of 10.4 ± 1.16 and a tissue to tissue ratio at 0.5 h ([6]; Ratio of tumor to Intestine) of 6.68 ± 1.41. The tissue to tissue ratio at 1 h ([6]; Ratio of tumor to Intestine) was 11.2 ± 2.42, the tissue to tissue ratio at 2 h ([6]; Ratio of tumor to Intestine) was 14.2 ± 1.47 and the tissue to tissue ratio at 0.5 h ([6]; Ratio of tumor to Kidney) was 0.07 ± 0.01. It also gave a tissue to tissue ratio at 1 h ([6]; Ratio of tumor to Kidney) of 0.1 ± 0.02, a tissue to tissue ratio at 2 h ([6]; Ratio of tumor to Kidney) of 0.06 and a tissue to tissue ratio at 0.5 h ([6]; Ratio of tumor to Liver) of 2.67 ± 0.5. It also gave a tissue to tissue ratio at 1 h ([6]; Ratio of tumor to Liver) of 3.1 ± 0.4, a tissue to tissue ratio at 2 h ([6]; Ratio of tumor to Liver) of 2.84 ± 0.9 and a tissue to tissue ratio at 0.5 h ([6]; Ratio of tumor to Muscle) of 7.42 ± 0.46. The tissue to tissue ratio at 1 h ([6]; Ratio of tumor to Muscle) was 26.1 ± 2.99 and the tissue to tissue ratio at 2 h ([6]; Ratio of tumor to Muscle) was 36.4 ± 2.54.
